Values joined by “and” are separate entries in the source; they are usually repeats but may differ in a detail not shown here. Identical values can stand only once. Like-named read-outs stand apart in the source and are kept apart here.
Experiments:
[1] = biological target: M. musculus (heart) complex I (Mus musculus, UniProt P03888+Q91WD5+Q9DC70); assay type: biochemical; conditions: for percent (%) in vitro complex I activity relative to solvent control / in vitro complex I activity relative to solvent control: M. musculus (heart) mitochondria, single replicate
[2] = biological target: H. sapiens (HEK293 cells) complex I (Homo sapiens, UniProt O75251+O75306+P03886); assay: In vitro complex I activity assay, HEK293 cell mitochondria; assay type: biochemical; conditions: single replicate

Chains of the proteins cited; added tags and fusions are not shown. Lines headed by an entry give the natural chain unless they say otherwise; changes in a name come on top. Residues count along the entry.
UniProt P03888: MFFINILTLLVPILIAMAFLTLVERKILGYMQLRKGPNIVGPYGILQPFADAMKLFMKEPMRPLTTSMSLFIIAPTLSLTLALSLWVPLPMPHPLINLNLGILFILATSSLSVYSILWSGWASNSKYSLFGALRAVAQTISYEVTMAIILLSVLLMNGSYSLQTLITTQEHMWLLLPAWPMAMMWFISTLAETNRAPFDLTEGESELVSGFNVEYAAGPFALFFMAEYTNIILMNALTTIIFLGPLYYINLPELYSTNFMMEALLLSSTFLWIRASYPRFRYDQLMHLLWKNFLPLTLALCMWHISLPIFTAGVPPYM
UniProt Q91WD5, 34-463: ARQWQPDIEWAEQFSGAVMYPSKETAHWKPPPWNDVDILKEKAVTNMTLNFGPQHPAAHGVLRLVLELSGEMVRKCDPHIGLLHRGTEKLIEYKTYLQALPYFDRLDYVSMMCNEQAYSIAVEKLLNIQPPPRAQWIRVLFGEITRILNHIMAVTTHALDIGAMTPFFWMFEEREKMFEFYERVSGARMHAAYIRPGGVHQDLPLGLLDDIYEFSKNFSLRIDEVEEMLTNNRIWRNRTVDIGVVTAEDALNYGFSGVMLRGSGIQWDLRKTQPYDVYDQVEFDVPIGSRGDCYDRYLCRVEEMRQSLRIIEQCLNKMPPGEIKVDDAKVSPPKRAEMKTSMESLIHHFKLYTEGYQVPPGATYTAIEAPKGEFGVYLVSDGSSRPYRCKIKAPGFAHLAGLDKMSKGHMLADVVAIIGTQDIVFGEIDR
UniProt Q9DC70, 36-224: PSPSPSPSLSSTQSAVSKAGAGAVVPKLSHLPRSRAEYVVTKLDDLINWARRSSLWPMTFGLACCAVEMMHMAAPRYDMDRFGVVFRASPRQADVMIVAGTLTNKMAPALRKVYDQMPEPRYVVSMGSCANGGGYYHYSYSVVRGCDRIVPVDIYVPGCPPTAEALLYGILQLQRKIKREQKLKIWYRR
UniProt O75251, 39-213: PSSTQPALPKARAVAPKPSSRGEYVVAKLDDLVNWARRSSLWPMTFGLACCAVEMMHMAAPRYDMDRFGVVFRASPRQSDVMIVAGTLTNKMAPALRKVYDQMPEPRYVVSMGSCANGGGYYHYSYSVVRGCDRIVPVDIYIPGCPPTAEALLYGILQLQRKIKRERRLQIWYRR
UniProt O75306, 34-463: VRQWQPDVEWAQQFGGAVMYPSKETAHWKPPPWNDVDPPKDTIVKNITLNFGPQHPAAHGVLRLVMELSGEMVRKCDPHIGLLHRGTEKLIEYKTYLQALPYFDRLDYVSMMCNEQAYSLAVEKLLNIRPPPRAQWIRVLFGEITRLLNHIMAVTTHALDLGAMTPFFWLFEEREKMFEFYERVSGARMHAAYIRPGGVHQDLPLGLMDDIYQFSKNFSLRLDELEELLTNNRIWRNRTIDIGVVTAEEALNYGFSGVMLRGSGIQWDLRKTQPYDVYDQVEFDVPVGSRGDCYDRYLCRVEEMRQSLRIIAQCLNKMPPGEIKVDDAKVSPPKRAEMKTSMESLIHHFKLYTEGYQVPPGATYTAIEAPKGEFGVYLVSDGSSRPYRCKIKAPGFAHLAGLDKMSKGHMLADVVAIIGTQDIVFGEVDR
UniProt P03886, whole entry: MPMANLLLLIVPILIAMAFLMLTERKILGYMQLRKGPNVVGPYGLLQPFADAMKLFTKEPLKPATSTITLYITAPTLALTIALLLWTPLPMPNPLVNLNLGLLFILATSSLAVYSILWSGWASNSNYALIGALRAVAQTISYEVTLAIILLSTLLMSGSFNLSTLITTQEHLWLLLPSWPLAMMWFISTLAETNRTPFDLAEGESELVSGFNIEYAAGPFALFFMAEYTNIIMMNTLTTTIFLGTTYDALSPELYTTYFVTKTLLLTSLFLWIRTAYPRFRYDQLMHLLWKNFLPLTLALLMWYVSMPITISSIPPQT

CC(C)Cc1ccc(C(C)c2nc3ccccc3n2C)cc1 (stereo not shown) [NPD8790]
percent (%) in vitro complex I activity relative to solvent control ([1]; 0.125 µM): 109.547% and 101.293% and 94.390% | percent (%) in vitro complex I activity relative to solvent control ([1]; 0.313 µM): 105.665% and 95.123% and 91.398% | percent (%) in vitro complex I activity relative to solvent control ([1]; 1.5 µM): 105.188% and 97.164% and 97.765% | percent (%) in vitro complex I activity relative to solvent control ([1]; 3 µM): 102.668% and 98.080% and 95.248% | percent (%) in vitro complex I activity relative to solvent control ([1]; 7.5 µM): 102.572% and 88.568% and 86.011% | percent (%) in vitro complex I activity relative to solvent control ([1]; 15 µM): 87.100% and 75.283% and 75.658% | percent (%) in vitro complex I activity relative to solvent control ([1]; 37.5 µM): 50.337% and 43.421% and 43.042% | percent (%) in vitro complex I activity relative to solvent control ([1]; 75 µM): 29.417% and 25.967% and 25.618% | in vitro complex I activity relative to solvent control ([1]; 0.06 µM): 102.752% and 117.261% and 99.301% and 94.461% | in vitro complex I activity relative to solvent control ([1]; 0.13 µM): 109.547% and 101.293% and 94.390% | in vitro complex I activity relative to solvent control ([1]; 0.313 µM): 105.665% and 95.123% and 91.398% | in vitro complex I activity relative to solvent control ([1]; 1.5 µM): 105.188% and 97.164% and 97.765% | in vitro complex I activity relative to solvent control ([1]; 3 µM): 102.668% and 98.080% and 95.248% | in vitro complex I activity relative to solvent control ([1]; 7.5 µM): 102.572% and 88.568% and 86.011% | in vitro complex I activity relative to solvent control ([1]; 15 µM): 87.100% and 75.283% and 75.658% | in vitro complex I activity relative to solvent control ([1]; 37.5 µM): 50.337% and 43.421% and 43.042% | in vitro complex I activity relative to solvent control ([1]; 75 µM): 29.417% and 25.967% and 25.618% | M. musculus: C. elegans IC50 Fold Change ([1]; mouse, heart mitochondria): 12.3 | in vitro complex I activity relative to solvent control ([2]; 0.06 µM): 133.652% and 18.730% and 118.393% and 94.784% and 85.196% | in vitro complex I activity relative to solvent control ([2]; 0.13 µM): 109.547% and 0.000% and 97.040% and 99.568% and 85.384% | in vitro complex I activity relative to solvent control ([2]; 0.313 µM): 97.852% and 7.329% and 86.681% and 92.836% and 98.710% | in vitro complex I activity relative to solvent control ([2]; 0.625 µM): 170.320% and 152.508% and 112.349% and 110.727% and 101.313% | in vitro complex I activity relative to solvent control ([2]; 1.5 µM): 126.484% and 100.000% and 83.434% and 67.935% and 100.438% | in vitro complex I activity relative to solvent control ([2]; 3 µM): 151.598% and 93.260% and 100.000% and 70.972% and 96.208% | in vitro complex I activity relative to solvent control ([2]; 7.5 µM): 126.027% and 98.589% and 83.133% and 65.435% and 94.458% | in vitro complex I activity relative to solvent control ([2]; 15 µM): 25.114% and 216.301% and 16.566% and 62.487% and 104.809% | in vitro complex I activity relative to solvent control ([2]; 37.5 µM): 46.575% and 23.197% and 30.723% and 68.669% and 94.799% | in vitro complex I activity relative to solvent control ([2]; 75 µM): 52.968% and 56.739% and 34.940% and 68.660% and 94.062%
